The text below walks through data of patent US20060160798A1, “Viral polymerase inhibitors” (Boehringer Ingelheim (Canada) Ltd., priority 2001, published 2006).

Broadly, the IC50 is the concentration at which inhibition is half-maximal. Low values mean inhibition by little substance, high ones a need for much substance.

The target in one experiment is hepatitis C virus RNA dependant polymerase (NS5B) (Hepatitis C virus genotype 1b, UniProt P26663). The experiment can be described thus: biochemical. As to conditions: IC50, HCV NS5B polymerase, 10 nM enzyme, 1.5 hours at room temperature.
Consider `CCN(CC)CC[C@H](NC(=O)c1ccc2c(C3CCCCC3)c(-c3ccoc3)[nH]c2c1)C(=O)Nc1ccc(/C=C/C(=O)O)cc1` [Entry 2065], for which the IC50 was under 500 nM.
On the same count and under the same terms, the same measure for `Cn1c(-c2ccoc2)c(C2CCCCC2)c2ccc(C(=O)NC3(C(=O)Nc4ccc(/C=C/C(=O)O)cc4)CCCC3)cc21` [Entry 2006]: 500 to 1000 nM; for `C[C@@H](NC(=O)c1ccc2c(C3CCCCC3)c(-c3ccoc3)[nH]c2c1)C(=O)Nc1ccc(/C=C/C(=O)O)cc1` [Entry 2004]: 500 to 1000 nM.
`O=C(O)/C=C/c1ccc(NC(=O)C2(NC(=O)c3ccc4c(C5CCCCC5)c(-c5cccs5)[nH]c4c3)CCCC2)cc1` [Entry 2042]: the concentration for half-maximal inhibition (IC50) was under 500 nM.
The compound `O=C(N[C@@H](Cc1c[nH]c2ccc(O)cc12)c1cscn1)c1ccc2c(C3CCCCC3)c(-c3ccccn3)[nH]c2c1` [Entry 1003] had an IC50 of 1000 to 10000 nM.
Compound `Cn1c(-c2ccccn2)c(C2CCCCC2)c2ccc(C(=O)NC(C)(C)C(=O)Nc3ccc(-c4nc(C(N)=O)cs4)cc3)cc21` [Entry 2074] returned a 50% inhibitory concentration (IC50) of under 500 nM.
`Cn1c(-c2ccccn2)c(C2CCCCC2)c2ccc(C(=O)NC(C)(C)C(=O)Nc3ccc(-c4ccc(C(N)=O)o4)cc3)cc21` [Entry 2073] gave a half-maximal inhibitory concentration (IC50) of under 500 nM.
`CC(=O)N1CCC(NC(=O)c2ccc3c(C4CCCCC4)c(-c4ccccn4)n(C)c3c2)(C(=O)Nc2ccc(C=CC(=O)O)cc2)C1` (centres unmarked) [Entry 2106]: the half-inhibitory concentration (IC50) is under 500 nM.
Turning to `O=C(O)/C=C/c1ccc(NC(=O)C2(NC(=O)c3ccc4c(C5CCCCC5)c(-c5ccco5)[nH]c4c3)CCCC2)cc1` [Entry 2037], the IC50 was under 500 nM.
On the same count and under the same terms, the same measure for `O=C(O)/C=C/c1ccc(NC(=O)C2(NC(=O)c3ccc4c(C5CCCCC5)c(-c5ccccn5)[nH]c4c3)CCCC2)cc1` [Entry 2033]: 500 to 1000 nM; for `Cn1c(-c2ccccn2)c(C2CCCC2)c2ccc(C(=O)NC(C)(C)c3nc(C(=O)O)co3)cc21` [Entry 1026]: 500 to 1000 nM; for `CCN1CCC(NC(=O)c2ccc3c(C4CCCCC4)c(-c4ccccn4)n(C)c3c2)(C(=O)Nc2ccc(-c3ccc(C(=O)O)nc3)cc2)CC1` [Entry 2101]: under 500 nM.
Regarding `CN1CCCC(NC(=O)c2ccc3c(C4CCCCC4)c(-c4ccccn4)n(C)c3c2)(C(=O)Nc2ccc(/C=C/C(=O)O)cc2)C1` (centres unmarked) [Entry 2114], the IC50 was under 500 nM.
`CC(C)(NC(=O)c1ccc2c(C3CCCCC3)c(-c3ccccn3)[nH]c2c1)C(=O)Nc1ccc(/C=C/C(=O)O)cc1` [Entry 2089] gave an IC50 of under 500 nM.
`Cn1c(-c2ccccn2)c(C2CCCC2)c2ccc(C(=O)NC3(c4nc5cc(C=CC(N)=O)ccc5[nH]4)CCC3)cc21` [Entry 1027] yielded a 50% inhibitory concentration (IC50) of under 500 nM.
On the same count and under the same terms, the same measure for `O=C(O)/C=C/c1ccc(NC(=O)C2(NC(=O)c3ccc4c(C5CCCCC5)c(-c5ccoc5)n(Cc5ccncc5)c4c3)CCCC2)cc1` [Entry 2043]: under 500 nM.
`Cn1c(C(N)=O)cc2cc(NC(=O)C(C)(C)NC(=O)c3ccc4c(C5CCCCC5)c(-c5ccccn5)n(C)c4c3)ccc21` [Entry 2075]: the IC50 is under 500 nM.
Take `CC(NC(=O)c1ccc2c(C3CCCC3)c(-c3ccccn3)n(C)c2c1)c1nc2ccc(C=CC(N)=O)cc2[nH]1` (centres unmarked) [Entry 1021]: the IC50 was under 500 nM.
The compound `O=C(O)COc1ccc2[nH]cc(C[C@H](NC(=O)c3ccc4c(C5CCCCC5)c(-c5ccoc5)n(CCCOc5ccc(C(=O)c6ccccc6)cc5)c4c3)C(=O)O)c2c1` [Entry 1007] returned a 50% inhibitory concentration (IC50) of 1000 to 10000 nM.
Compound `Cn1c(-c2ccc(C(=O)c3ccccc3)cn2)c(C2CCCCC2)c2ccc(C(=O)N[C@@H](Cc3c[nH]c4ccc(OCC(=O)O)cc34)C(=O)O)cc21` [Entry 1012] gave an IC50 of under 500 nM.
As to `O=C(O)/C=C/c1ccc(NC(=O)C2(NC(=O)c3ccc4c(C5CCCCC5)c(-c5ccccc5)[nH]c4c3)CCCC2)cc1` [Entry 2035], the IC50 was under 500 nM.

The same experiment, now with this note: IC50, Table 6.
As for `CCCNc1nc(-c2c(C3CCCC3)c3ccc(C(=O)NC4(C(=O)Nc5ccc(/C=C/C(=O)O)cc5)CCCC4)cc3n2C)cs1` [Entry 6091], the IC50 was under 500 nM.
The compound `Cc1cccc(-c2c(C3CCCC3)c3ccc(C(=O)NC4(C(=O)Nc5ccc(/C=C/C(=O)O)cc5)CCCC4)cc3n2C)n1` [Entry 6057] gave an IC50 of under 500 nM.
In turn, `Cn1c(-c2csc(NCCN3CCCCC3)n2)c(C2CCCC2)c2ccc(C(=O)NC3(C(=O)Nc4ccc(/C=C/C(=O)O)cc4)CCC3)cc21` [Entry 6078] returned a half-inhibitory concentration (IC50) of under 500 nM.
On to `Cc1ccc(-c2c(C3CCCC3)c3ccc(C(=O)NC4(C(=O)Nc5ccc(/C=C/C(=O)O)cc5)CCN(C)CC4)cc3n2C)nc1` [Entry 6103], for which the half-maximal inhibitory concentration (IC50) is under 500 nM.
Still for that read-out and setting: the same measure for `CC(=O)Nc1ccc(-c2c(C3CCCC3)c3ccc(C(=O)NC4(C(=O)Nc5ccc(/C=C/C(=O)O)cc5)CCC4)cc3n2C)cc1C` [Entry 6006]: under 500 nM; for `CN(C)CCNc1nc(-c2c(C3CCCC3)c3ccc(C(=O)NC(C)(C)C(=O)Nc4ccc(/C=C/C(=O)O)cc4)cc3n2C)cs1` [Entry 6035]: under 500 nM; for `CCCNc1nc(-c2c(C3CCCC3)c3ccc(C(=O)NC(C)(C)C(=O)Nc4ccc(/C=C/C(=O)O)cc4)cc3n2C)cs1` [Entry 6014]: under 500 nM.
The same measure, in the same setting: the value for `CC(C)Nc1nc(-c2c(C3CCCC3)c3ccc(C(=O)NC(C)(C)C(=O)Nc4ccc(/C=C/C(=O)O)cc4)cc3n2C)cs1` [Entry 6017] was under 500 nM; that for `Cc1ccc(-c2c(C3CCCC3)c3ccc(C(=O)N[C@@]4(C(=O)Nc5ccc(/C=C/C(=O)O)cc5)CCN(C)C4)cc3n2C)cn1` [Entry 6115] was under 500 nM; that for `C=Cc1c(C2CCCC2)c2ccc(C(=O)NC3(C(=O)Nc4ccc(/C=C/C(=O)O)cc4)CCC3)cc2n1C` [Entry 6084] was under 500 nM.
On the same count and under the same terms, the same measure for `CN(C)Nc1nc(-c2c(C3CCCC3)c3ccc(C(=O)NC(C)(C)C(=O)Nc4ccc(/C=C/C(=O)O)cc4)cc3n2C)cs1` [Entry 6032]: under 500 nM; for `Cn1c(-c2ccccn2)c(C2CCCC2)c2ccc(C(=O)N[C@@]3(C(=O)Nc4ccc(/C=C/C(=O)O)cc4)CCN(S(C)(=O)=O)C3)cc21` [Entry 6124]: under 500 nM.
Take `CN1CCC(NC(=O)c2ccc3c(C4CCCC4)c(-c4ccc(N)cc4)n(C)c3c2)(C(=O)Nc2ccc(/C=C/C(=O)O)cc2)CC1` [Entry 6054]: the half-inhibitory concentration (IC50) is under 500 nM.
On the same count and under the same terms, the value for `CN1CCC(NC(=O)c2ccc3c(C4CCCC4)c(-c4cccc(N)n4)n(C)c3c2)(C(=O)Nc2ccc(/C=C/C(=O)O)cc2)CC1` [Entry 6059] was under 500 nM.
In turn, `Cn1c(-c2csc(N)n2)c(C2CCCC2)c2ccc(C(=O)NC3(C(=O)Nc4ccc(/C=C/C(=O)O)cc4)CCCC3)cc21` [Entry 6089] came in with a half-inhibitory concentration (IC50) of under 500 nM.
As for `Cn1c(Br)c(C2CCCC2)c2ccc(C(=O)NC3(C(=O)Nc4ccc(/C=C/C(=O)O)cc4)CCC3)cc21` [Entry 6120], the IC50 fell in the range of 500 to 1000 nM.
As for `Cn1c(-c2ccccn2)c(C2CCCC2)c2ccc(C(=O)NC3(C(=O)Nc4ccc(/C=C/C(=O)O)cc4)CCN(S(C)(=O)=O)CC3)cc21` [Entry 6125], the IC50 is under 500 nM.
With `Cn1c(-c2csc(NC(=O)CC(C)(C)C)n2)c(C2CCCC2)c2ccc(C(=O)NC(C)(C)C(=O)Nc3ccc(/C=C/C(=O)O)cc3)cc21` [Entry 6007], the IC50 is under 500 nM.
With `CC(=O)Nc1ccc(-c2c(C3CCCC3)c3ccc(C(=O)NC(C)(C)C(=O)Nc4ccc(/C=C/C(=O)O)cc4)cc3n2C)cc1C` [Entry 6005], the IC50 is under 500 nM.

Still in this experiment, the particulars now being: IC50, Table 7.
`Cn1c(-c2ccccn2)c(C2CCCC2)c2ccc(C(=O)NC3(C(=O)Nc4ccc(-c5ccc(C(=O)O)s5)cc4)CCC3)cc21` [Entry 7004]: the IC50 is 500 to 1000 nM.
In the case of `Cn1c(-c2ccccn2)c(C2CCCC2)c2ccc(C(=O)NC3(C(=O)NCc4ccc(C(=O)O)cc4)CCC3)cc21` [Entry 7003], the 50% inhibitory concentration (IC50) lay within 1000 to 10000 nM.
The compound `Cn1c(-c2nccs2)c(C2CCCC2)c2ccc(C(=O)NC3(C(=O)Nc4ccc(-c5ccc(C(=O)O)o5)cc4)CCC3)cc21` [Entry 7047] registered an IC50 of under 500 nM.
In turn, `Cn1c(-c2cccc(N)c2)c(C2CCCC2)c2ccc(C(=O)NC3(C(=O)Nc4ccc(-c5ccc(C(=O)O)o5)cc4)CCC3)cc21` [Entry 7050] showed a half-maximal inhibitory concentration (IC50) of under 500 nM.
Regarding `CN(C)c1csc2ccc(NC(=O)C3(NC(=O)c4ccc5c(C6CCCC6)c(-c6ccccn6)n(C)c5c4)CCC3)cc12` [Entry 7063], the half-maximal inhibitory concentration (IC50) lay in the range of 500 to 1000 nM.
On to `Cn1c(C(=O)O)cc2cc(NC(=O)C3(NC(=O)c4ccc5c(C6CCCC6)c(-c6ccccn6)n(C)c5c4)CCC3)ccc21` [Entry 7012], for which the IC50 was under 500 nM.
`CC(=O)Nc1c(C(=O)O)sc2ccc(NC(=O)C3(NC(=O)c4ccc5c(C6CCCC6)c(-c6ccccn6)n(C)c5c4)CCC3)cc12` [Entry 7046] registered a concentration for half-maximal inhibition (IC50) of under 500 nM.
`Cn1c(-c2ccccn2)c(C2CCCC2)c2ccc(C(=O)NC3(C(=O)Nc4ccc(S(N)(=O)=O)cc4)CCC3)cc21` [Entry 7068] gave an IC50 of under 500 nM.
Compound `Cn1c(-c2ccsc2)c(C2CCCC2)c2ccc(C(=O)NC3(C(=O)Nc4ccc(-c5ccc(C(=O)O)o5)cc4)CCCC3)cc21` [Entry 7052] yielded an IC50 of under 500 nM.
`Cn1c(-c2ccccn2)c(C2CCCC2)c2ccc(C(=O)NC3(C(=O)Nc4ccc5c(Cl)c(C(=O)O)sc5c4)CCC3)cc21` [Entry 7007] yielded an IC50 of under 500 nM.
Same read-out and setting: the same measure for `Cn1c(-c2ccccn2)c(C2CCCC2)c2ccc(C(=O)NC3(C(=O)Nc4ccc(C(N)=O)cc4)CCC3)cc21` [Entry 7076]: under 500 nM; for `Cn1c(-c2cnccn2)c(C2CCCC2)c2ccc(C(=O)NC3(C(=O)Nc4ccc(-c5ccc(C(=O)O)o5)cc4)CCCC3)cc21` [Entry 7037]: under 500 nM.
`Cc1nc(-c2ccc(C(=O)O)s2)ccc1NC(=O)C1(NC(=O)c2ccc3c(C4CCCC4)c(-c4ccccn4)n(C)c3c2)CCC1` [Entry 7066] returned a half-inhibitory concentration (IC50) of 1000 to 10000 nM.
On to `Cn1c(-c2ccccn2)c(C2CCCC2)c2ccc(C(=O)NC3(C(=O)Nc4ccc(Cc5nnn[nH]5)cc4)CCC3)cc21` [Entry 7078], for which the IC50 was in the range of 500 to 1000 nM.
Turning to `Cn1c(-c2ccccn2)c(C2CCCC2)c2ccc(C(=O)NC3(C(=O)Nc4cccc(O)c4)CCC3)cc21` [Entry 7071], the IC50 was under 500 nM.
For `Cn1c(-c2ccccn2)c(C2CCCC2)c2ccc(C(=O)NC3(C(=O)Nc4ccc(C(=O)O)cc4)CCC3)cc21` [Entry 7083], the IC50 is under 500 nM.
